Patent US8589175B2, “Optimization and individualization of medication selection and dosing” (Children's Hospital Medical Center, priority 2005, dated 2013)
Read-outs that look alike come from different tables or passages of the source.

Experiments:
[1] = system: CYP2D6
[2] = system: CYP2C19; assay: dosing recommendation per CYP2C19 metabolizer subgroup as percentage of usual population dose (Equations 4-6)
Text: Assuming the goal is to maintain the same AUC for all three subpopulations of patients, the following subpopulation dosing relationships hold: DPM=DEM*(AUCEM/AUCPM) OR DPM=DEM*R if R=(AUCEM/AUCPM) (Equation 2) DIM=DEM*(AUCEM/AUCIM) OR DIM=DEM*S if S=(AUCEM/AUCIM) (Equation 3)
By substituting equations 2 and 3 into equation 1, and then rearranging the equation to solve for the percent dose adjustment needed for each subgroup relative to the population dose: DEM(%)=100/(fEM+fIM*S+fPM*R) (Equation 4) DPM(%)=R*DEM (Equation 5) DIM(%)=S*DEM (Equation 6) Equations 4, 5, and 6 show how the dosing for the more homogeneous subgroups is determined and how the dosing results are expressed as a fraction of the clinician's usual heterogeneous whole group dosages. Determining “Minimal Dose Adjustment Units”
Example: The approach in the previous section leads to individualized initial drug dose recommendations for each of the 3 subgroups (extensive, poor and intermediate metabolizers). Each subgroup represents a specific number of functional alleles for the specific DME (extensive metabolizers have 2 functional, intermediate metabolizers have 1 functional and poor metabolizers have 0 functional). The resultant dosing recommendations are expressed as percentages of the clinician's usual starting dose. It is possible to investigate the effect of increasing numbers of non-functional alleles using these new dosing recommendations. For example, if DRX % is the dosing recommendation for subgroup X expressed as a percentage of the clinician's usual starting dose then the following are true: Effect of […] 1 non-functional allele=(DREM %−DRIM %)/DREM % Effect of 2 non-functional allele=(DREM %−DRPM %)/DREM % Below is a spreadsheet (Table 3) that examines this for CYP2D6, CYP2C19 and CYP2C9. […] 2C9 has 2 MDA units per non-functional allele.

Structure (SMILES) | 2 al (effect of 2 non-functional alleles) ([1]; human) | 2 al/1 al ([1]; human) | EM (%) dosing recommendation ([1]; human) [%] | IM (%) dosing recommendation ([1]; human) [%] | PM (%) dosing recommendation ([1]; human) [%] | UM (%) dosing recommendation ([1]; human) [%] | 1 al (effect of 1 non-functional allele) ([1]; CYP2D6, (DREM%-DRIM%)/DREM%) | 2 al (effect of 2 non-functional alleles) ([1]; CYP2D6, (DREM%-DRPM%)/DREM%) | 2 al/1 al ([1]; CYP2D6, ratio of the two effects) | EM (%) dosing recommendation ([1]; CYP2D6 extensive metabolizers, percent of usual dose) [%] | IM (%) dosing recommendation ([1]; CYP2D6 intermediate metabolizers, percent of usual dose) [%] | PM (%) dosing recommendation ([1]; CYP2D6 poor metabolizers, percent of usual dose) [%] | UM (%) dosing recommendation ([1]; CYP2D6 ultrarapid metabolizers, percent of usual dose) [%] | 1 al (effect of 1 non-functional allele) ([2]; CYP2C19) | 2 al (effect of 2 non-functional alleles) ([2]; CYP2C19) | 2 al/1 al ([2]; CYP2C19, ratio of the two effects) | IM (%) dosing recommendation ([2]; CYP2C19 intermediate metabolizers, percent of usual dose) [%] | PM (%) dosing recommendation ([2]; CYP2C19 poor metabolizers, percent of usual dose) [%] | 1 al (effect of 1 non-functional allele) ([1]; human)
Cc1nc2n(c(=O)c1CCN1CCC(c3noc4cc(F)ccc34)CC1)CCCC2 [risperidone] | 0.18 | 1.90 | 106 | 96 | 87 | 116 |  |  |  |  |  |  |  |  |  |  |  |  | 
CN(C)CCCN1c2ccccc2CCc2ccccc21 [imipramine] |  |  |  |  |  |  | 0.40 | 0.79 | 1.98 | 131 | 79 | 28 | 182 | 0.23 | 0.46 | 2.00 | 83 | 58 | 
Cc1cc2c(s1)Nc1ccccc1N=C2N1CCN(C)CC1 [olanzapine] | 0.50 | 3.59 | 122 | 105 | 61 | 139 |  |  |  |  |  |  |  |  |  |  |  |  | 0.14
